Protein sequences, listed by entry. Tags and fused reporters are not part of them. Residues count along the entry.
UniProt P08581, 1078-1345 limits assumed: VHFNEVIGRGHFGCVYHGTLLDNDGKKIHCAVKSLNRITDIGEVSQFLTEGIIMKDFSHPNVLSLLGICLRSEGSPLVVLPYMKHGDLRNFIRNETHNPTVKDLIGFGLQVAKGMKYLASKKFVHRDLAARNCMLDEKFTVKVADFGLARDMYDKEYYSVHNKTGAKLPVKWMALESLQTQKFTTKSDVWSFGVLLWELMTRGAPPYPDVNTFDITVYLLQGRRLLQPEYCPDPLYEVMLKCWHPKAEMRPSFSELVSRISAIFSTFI

This test addresses T1, GST fusion protein containing the Met kinase domain (Homo sapiens, UniProt P08581).
T1 construct: Purified GST fusion protein containing the Met kinase domain, SUGEN, Inc
Put plainly: MET transphosphorylation assay (ELISA, poly(glu-tyr) substrate). In kind it is biochemical. The method, then: MET Transphosphorylation Assay
8. 10% aqueous (MilliQue H2O) DMSO.
11. 4× ATP Reaction Mixture: for 10 mL, mix 0.4 mL 1 M manganese chloride and 0.02 mL 0.1 M ATP in 9.56 mL dH2O.
12. 4× Negative Controls Mixture: for 10 mL, mix 0.4 mL 1 M manganese chloride in 9.6 mL dH2O.
17. Goat anti-rabbit horseradish peroxidase conjugated antibody, Biosource, Inc.
18. ABTS Solution: for 1 L, mix 19.21 g citric acid, 35.49 g Na2HPO4 and 500 mg ABTS with sufficient dH2O to make 1 L.
2. Block plate with 150 μL of 5% BSA/PBS for 60 min.
4. Add 50 μl of the diluted kinase to all wells. (Purified kinase is diluted with Kinase Dilution Buffer. Final concentration should be 10 ng/well.)
5. Add 25 μL of the test compound (in 4% DMSO) or DMSO alone (4% in dH2O) for controls to plate.
6. Incubate the kinase/compound mixture for 15 minutes.
7. Add 25 μL of 40 mM MnCl2 to the negative control wells.
8. Add 25 μL ATP/MnCl2 mixture to the all other wells (except the negative controls). Incubate for 5 min.
9. Add 25 μL 500 mM EDTA to stop reaction.
10. Wash plate 3× with TBST.
11. Add 100 μL rabbit polyclonal anti-Ptyr diluted 1:10,000 in Antibody Dilution Buffer to each well. Incubate, with shaking, at room temperature for one hour.
12. Wash plate 3× with TBST.
13. […] Add 100 μL per well and incubate at room temperature, with shaking, for one hour.
14. Wash plate 1× with PBS.
15. Add 100 μl of ABTS/H2O2 solution to each well.
16. If necessary, stop the development reaction with the addition of 100 μl of 0.2M HCl per well.
Compound `CC(=O)N1CCN(C(=O)c2ccc(-c3cnc(N)c(OCc4ccccc4C(F)(F)F)c3)cc2)CC1` [Example I-189, 1-(4-{4-[6-Amino-5-(2-trifluoromethyl-benzyloxy)-pyridin-3-yl]-benzoyl}-piperazin-1-yl)-ethanone] had an IC50 of 6700 nM.
In the case of `CC(Oc1cc(-c2ccc(NS(=O)(=O)CCN(C)C)cc2)cnc1N)c1c(Cl)ccc(F)c1Cl` (stereo not drawn) [Example I-298, 2-Dimethylamino-ethanesulfonic acid (4-{6-amino-5-[1-(2,6-dichloro-3-fluoro-phenyl)-ethoxy]-pyridin-3-yl}-phenyl)-amide] it was 59 nM; in that of `Nc1ncc(-c2ccc(C(=O)N3CCC[C@@H](CNC4CC4)C3)cc2)cc1OCc1c(Cl)cccc1Cl` [Example I-45, {4-[6-Amino-5-(2,6-dichloro-benzyloxy)-pyridin-3-yl]-phenyl}-[(3S)-3-cyclopropylaminomethyl-piperidin-1-yl]-methanone], 770 nM.

The record behind these values is patent US20070072874A1, “Aminoheteroaryl compounds as protein kinase inhibitors” (Sugen, Inc., priority 2003, published 2007).
